Measured values as given in ChEMBL document CHEMBL1136242, “Arachidonylsulfonyl derivatives as cannabinoid CB1 receptor and fatty acid amide hydrolase inhibitors” (Bioorg Med Chem Lett, 2003).

Amino acid sequences for entries named in this document (tags omitted).
UniProt P47746, whole entry: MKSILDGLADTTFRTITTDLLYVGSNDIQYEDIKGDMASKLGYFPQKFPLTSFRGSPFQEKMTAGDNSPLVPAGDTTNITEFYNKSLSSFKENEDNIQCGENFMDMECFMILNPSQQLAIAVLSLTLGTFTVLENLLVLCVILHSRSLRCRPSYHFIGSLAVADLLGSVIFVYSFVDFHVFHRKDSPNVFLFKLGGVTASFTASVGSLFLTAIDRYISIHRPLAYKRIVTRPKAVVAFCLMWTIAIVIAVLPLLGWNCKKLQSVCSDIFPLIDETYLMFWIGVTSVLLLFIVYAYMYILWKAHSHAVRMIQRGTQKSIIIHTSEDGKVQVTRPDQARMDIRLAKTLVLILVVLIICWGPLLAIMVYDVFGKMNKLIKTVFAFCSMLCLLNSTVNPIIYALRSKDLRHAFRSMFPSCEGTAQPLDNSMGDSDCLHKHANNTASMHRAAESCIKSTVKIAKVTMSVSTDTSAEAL

Molecular target: Cannabinoid receptor 1 (Mus musculus, UniProt P47746)
Experiment: Binding affinity towards Cannabinoid receptor 1 was determined using [3H]-CP- cannabinoid as radioligand with mouse brain membrane

For `CCCCC/C=C\C/C=C\C/C=C\C/C=C\CCCC(=O)NCCO` [ANANDAMIDE], the IC50 was 12 µM.
